One molecule from publication PMC12915096, “AI‐Driven Acceleration of Fluorescence Probe Discovery” (Advanced Science, 2025) can be followed below.

Sequences of proteins named here, by UniProt entry; tags and fusion partners are left off.
UniProt Q13148, whole entry: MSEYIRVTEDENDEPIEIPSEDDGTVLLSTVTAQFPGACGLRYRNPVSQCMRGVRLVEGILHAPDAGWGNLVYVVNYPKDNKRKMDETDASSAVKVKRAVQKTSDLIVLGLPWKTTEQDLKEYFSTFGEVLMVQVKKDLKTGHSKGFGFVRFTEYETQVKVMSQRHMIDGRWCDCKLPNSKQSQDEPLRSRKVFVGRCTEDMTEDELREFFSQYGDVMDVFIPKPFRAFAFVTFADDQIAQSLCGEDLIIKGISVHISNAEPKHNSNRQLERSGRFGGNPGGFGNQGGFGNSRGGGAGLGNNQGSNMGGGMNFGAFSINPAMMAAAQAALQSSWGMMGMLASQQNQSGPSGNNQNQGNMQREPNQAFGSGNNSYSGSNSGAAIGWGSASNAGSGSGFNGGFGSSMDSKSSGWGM

In experiment [1] the target is TDP-43 aggregates (Homo sapiens, UniProt Q13148). Kind of experiment: Thioflavin T (ThT) assay. To be noted: A5 20 µM, ThT 5 µM, 6 µM TDP-43 aggregates. The text has this:
Application : Anti-TDP-43 Drug Screening by B3
Extended Data Figure 8: Drug screening applications of B3. a. Computational-experimental pipeline for
TDP-43 ligand discovery. Virtual screening of over 100,000 compounds against TDP-43 (PDB: 4Y00) yielded
5 candidate compounds, with probe B3 fluorescence assays confirming A5 as a novel ligand. Diagram of
the TDP-43-targeted drug screening workflow by combining computational methods and probe B3. Over
100,000 compounds were first screened by Computer-Aided Drug Design (CADD) with TDP-43 proteins
(PDB ID: 4Y00), resulting in 5 promising candidate ligands. Next, probe B3 was used as a fluorescence […]
of B3 fluorescence inhibition screening strategy. […]
aggregates (6µM) were incubated at room temperature for 1 h. The fluorescence intensity was measured and
B3 fluorescence inhibition rate was calculated relative to compound-free controls, the inhibition rate of B3
fluorescence signals was calculated and normalized relative to the control group (without compound). c. […]
fluorescence inhibition assay results.
maximal inhibition. […] Statistical significance was assessed using a one- […]
by standard binding assays. A5 (20µM) inhibited ThT (5µM) fluorescence when interacting with 6µM TDP-
43 aggregates. The data are the mean ± S.E.M., n = 3, statistical significance was assessed using a one-way […]

The target of experiment [2] is TDP-43 (Homo sapiens, UniProt Q13148). Kind of experiment: Microscale thermophoresis (MST) assay. As to conditions: read-out: Dissociation constant Kd (TDP-43), MST; 50 nM labeled TDP-43, n = 3. The procedure:
Microscale thermophoresis experiments were performed using a NanoTemper Monolith Instrument (NT.115). Purified TDP‐43 (Sangon Biotech, 0.9 mg/mL in Tris buffer) was labeled using the Monolith Protein Labeling Kit RED‐tris‐NTA (MO‐L018, Nanotemper, Germany) according to the manufacturer's instructions. For binding measurements, 50 nM labeled TDP‐43 was mixed with serially diluted concentrations of A5 in PBS‐T buffer. Samples were loaded into MST premium capillaries, and thermophoresis traces were recorded. Data analysis was performed by the MO Affinity Analysis software (Nanotemper), and the data was fit using the specific binding with Hill model in GraphPad 8.3.0.
(Microscale thermophoresis detects binding through changes in fluorescence in a small temperature gradient.)

Each structure is given as a SMILES string.

In general, Kd refers to the constant that tells how readily two partners part at equilibrium.

On to `Cc1nc2c(Cl)cc(Cl)cc2c(=O)n1-c1cccc(C(F)(F)F)c1`, for which, in experiment [1], the “Inhibitory effect on TDP-43 aggregation (ThT fluorescence)” value is recorded as “decreased ThT fluorescence signal”. In experiment [2], the Kd was found to be 445 nM.
